The source of these data is US20240217960A1, “TRIAZINE DERIVATIVE AS COVALENT INHIBITORS OF PI3K” (UNIVERSITÄT BASEL, priority 2021, published 2024).

By UniProt entry, the sequences of proteins in these tests, tags left out.
UniProt P42336, whole entry: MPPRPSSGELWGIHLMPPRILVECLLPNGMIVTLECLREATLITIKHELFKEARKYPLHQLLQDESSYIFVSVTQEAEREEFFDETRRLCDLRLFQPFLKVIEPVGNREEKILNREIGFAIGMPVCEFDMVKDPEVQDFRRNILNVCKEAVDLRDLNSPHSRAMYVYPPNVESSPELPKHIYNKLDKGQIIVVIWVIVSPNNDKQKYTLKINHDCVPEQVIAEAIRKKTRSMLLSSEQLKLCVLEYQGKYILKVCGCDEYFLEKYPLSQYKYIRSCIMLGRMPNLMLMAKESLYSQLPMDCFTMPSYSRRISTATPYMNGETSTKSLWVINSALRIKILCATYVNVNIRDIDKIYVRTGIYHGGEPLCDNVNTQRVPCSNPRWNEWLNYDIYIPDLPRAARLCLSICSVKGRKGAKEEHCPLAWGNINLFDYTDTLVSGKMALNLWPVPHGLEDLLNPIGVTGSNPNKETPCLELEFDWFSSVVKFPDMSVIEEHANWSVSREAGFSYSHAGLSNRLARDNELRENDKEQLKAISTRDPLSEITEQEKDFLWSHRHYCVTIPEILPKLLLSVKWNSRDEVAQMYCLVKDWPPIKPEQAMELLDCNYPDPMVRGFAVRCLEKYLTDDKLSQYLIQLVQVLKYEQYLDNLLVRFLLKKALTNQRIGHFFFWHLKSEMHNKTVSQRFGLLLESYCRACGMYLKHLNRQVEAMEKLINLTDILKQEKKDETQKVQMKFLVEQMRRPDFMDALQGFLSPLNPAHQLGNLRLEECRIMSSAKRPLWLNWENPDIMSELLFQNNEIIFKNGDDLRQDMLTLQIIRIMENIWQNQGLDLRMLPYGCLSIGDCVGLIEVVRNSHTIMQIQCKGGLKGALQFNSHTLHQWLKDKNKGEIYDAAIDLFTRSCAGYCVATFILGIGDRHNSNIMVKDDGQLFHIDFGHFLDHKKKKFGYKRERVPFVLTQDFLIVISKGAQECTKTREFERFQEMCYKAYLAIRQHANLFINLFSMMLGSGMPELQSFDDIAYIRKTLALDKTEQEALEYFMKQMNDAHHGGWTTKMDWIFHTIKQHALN
UniProt P27986, whole entry partner: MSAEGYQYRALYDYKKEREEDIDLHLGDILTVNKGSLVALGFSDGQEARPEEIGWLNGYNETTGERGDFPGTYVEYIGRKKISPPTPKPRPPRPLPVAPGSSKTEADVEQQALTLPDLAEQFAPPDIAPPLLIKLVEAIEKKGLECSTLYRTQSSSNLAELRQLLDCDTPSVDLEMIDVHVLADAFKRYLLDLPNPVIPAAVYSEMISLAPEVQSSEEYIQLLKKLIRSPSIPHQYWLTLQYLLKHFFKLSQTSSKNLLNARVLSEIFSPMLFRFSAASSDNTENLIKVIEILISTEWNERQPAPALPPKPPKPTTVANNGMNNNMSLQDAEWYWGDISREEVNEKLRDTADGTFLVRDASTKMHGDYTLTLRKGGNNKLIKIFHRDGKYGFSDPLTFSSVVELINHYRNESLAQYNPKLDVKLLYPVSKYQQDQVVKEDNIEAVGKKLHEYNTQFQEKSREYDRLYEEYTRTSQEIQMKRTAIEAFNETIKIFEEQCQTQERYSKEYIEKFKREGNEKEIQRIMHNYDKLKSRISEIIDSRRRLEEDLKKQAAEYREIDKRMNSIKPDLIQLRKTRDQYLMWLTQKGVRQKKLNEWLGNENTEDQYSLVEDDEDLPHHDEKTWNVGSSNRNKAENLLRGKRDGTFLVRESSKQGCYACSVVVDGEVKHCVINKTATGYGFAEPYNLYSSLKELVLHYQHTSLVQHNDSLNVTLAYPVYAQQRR

For one test, the target named is p110α (PI3Kα) (Homo sapiens, UniProt P42336). The test can be described thus: Determination of kinetic constants (kinact, Ki) for p110α by LanthaScreen Technology. Particulars: read-out: Ki PI3Kα; dissociation constant of the first reversible binding; global fitting with KinTek. Background: Time-resolved FRET reads energy transfer from a long-lived donor to a nearby acceptor.

The subject of test [1] is pSer473 of PKB/Akt in SKOV3 cells. Nature of the test: In Cell Western cellular PI3K signaling and IC50 determination. It is filed as cell-based. Particulars: read-out: IC50 pPKB (S473) SKOV3, 2 or 3 independent measurements. On the procedure: Protein phosphorylation was detected as follows: pSer473 of PKB/Akt with rabbit polyclonal antibody from Cell Signaling Technology (CST) (#4058) by In-Cell Western assays, where 1.2×10^4 SKOV3 cells/well in 96-well plates were plated (Cell Carrier, PerkinElmer) for 24 hours (37° C., 5% CO2), as described in Ref. ^25.

What is called Ki is the equilibrium dissociation constant of an inhibitor or competing ligand from its target. By IC50 is commonly meant the midpoint of a concentration-inhibition curve.

Regarding `CCC(=O)N1CCC(C(=O)N(C)CC(=O)N2CCN(c3nc(-c4cnc(N)nc4C(F)F)nc(N4CCOCC4)n3)CC2)CC1`, at p110α (PI3Kα), the Ki came to 6.16 nM. The half-maximal inhibitory concentration (IC50) in test [1] stood at 227 nM.
